Earlier results in US20170071990A1 (published 2017).

How the values were obtained:
[1] = in vitro and in vivo studies; cited from earlier work
[2] = in vivo; cited from earlier work

## OB(O)O [boric acid]
[1]
  mutagenic or teratogenic properties: no mutagenic or teratogenic properties were observed
[2]
  concentrations of boric acid considered safe: up to 5%
